Target: Glutamate NMDA receptor
Assay: Inhibition of [3H]MK-801 binding to NMDA receptor of rat cerebral cortical synaptic membrane
In short: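 Rat cerebral cortical synaptic membranes incubated with [3H]MK-801 (4 nM) in presence of glutamate (10 μM) and glycine (10 μM); test compound displacement of radioligand binding measured following a previously reported method.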

IC50: 14 µM
SMILES: CN(C)CCCN1c2ccccc2CCc2ccccc21 [IMIPRAMINE]
